Results as given in PubChem BioAssay AID1497 (Sanford-Burnham Center for Chemical Genomics, 2009).
The entries are a selection whose mix differs from that of the whole data set. Activity calls are given as the source filed them.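 Rule for the calls: active = primary inhibition of 50% or more at 10 µM, then 40% or more on retest; inactive = the rest.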

Chains of the proteins cited; added tags and fusions are not shown.
UniProt P05107, whole entry, looked up: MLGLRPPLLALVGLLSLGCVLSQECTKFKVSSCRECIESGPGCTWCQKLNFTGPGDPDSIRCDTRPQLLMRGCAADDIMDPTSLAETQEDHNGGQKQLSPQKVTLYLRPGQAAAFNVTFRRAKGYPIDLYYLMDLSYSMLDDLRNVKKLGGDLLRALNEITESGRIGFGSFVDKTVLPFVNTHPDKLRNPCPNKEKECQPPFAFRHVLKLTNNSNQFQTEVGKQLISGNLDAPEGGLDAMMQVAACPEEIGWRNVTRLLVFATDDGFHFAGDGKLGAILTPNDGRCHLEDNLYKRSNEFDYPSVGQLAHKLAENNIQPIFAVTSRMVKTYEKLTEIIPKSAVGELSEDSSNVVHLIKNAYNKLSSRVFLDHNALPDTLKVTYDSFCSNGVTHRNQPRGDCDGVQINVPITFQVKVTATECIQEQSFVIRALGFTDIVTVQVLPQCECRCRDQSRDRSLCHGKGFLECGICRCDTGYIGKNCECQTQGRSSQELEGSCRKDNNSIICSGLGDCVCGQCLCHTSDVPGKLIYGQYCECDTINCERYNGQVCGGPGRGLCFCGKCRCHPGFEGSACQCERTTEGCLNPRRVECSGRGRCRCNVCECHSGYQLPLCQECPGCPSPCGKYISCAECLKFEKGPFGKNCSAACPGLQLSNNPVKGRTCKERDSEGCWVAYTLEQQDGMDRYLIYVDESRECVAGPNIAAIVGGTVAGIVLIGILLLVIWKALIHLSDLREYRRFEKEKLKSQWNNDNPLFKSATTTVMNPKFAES

Each compound was assayed against Integrin beta-2 (Homo sapiens) + Integrin alpha-M (Homo sapiens) (UniProt P05107+P11215) (assay: inhibitors of CD11b/CD18 adhesion to fibrinogen, primary screen, K562 cells, luminescence (AID 1497)). Conditions: ATPlite luminescence, at 10 µM, stronger effect = higher value, Mn2+ added to activate the integrin.

Row | Compound | inhibition
1 | Cc1nc2ccc3ccccc3c2s1.O=[N+]([O-])c1cc([N+](=O)[O-])c(O)c([N+](=O)[O-])c1 | inactive: 0.9%
2 | Cc1cc(C)cc(OP(C)(=O)Nc2ccccn2)c1 (stereo not given) | inactive: -0.6%
3 | Cc1ccc(C)c(NP(C)(=O)Oc2ccccc2)c1 (stereo not given) | inactive: 5.7%
4 | Cc1cc(C)cc(OP(C)(=O)Nc2ccc(C)cc2C)c1 (stereo not given) | inactive: -55.3%
5 | COc1ccccc1OP(C)(=O)Nc1ccc(C)cc1 (stereo not given) | inactive: 2%
6 | Cc1ccc(NP(C)(=O)Oc2ccccc2)c(C)c1 (stereo not given) | inactive: 11.6%
7 | COc1ccc(OP(C)(=O)Nc2cccc(F)c2)cc1 (stereo not given) | inactive: 9.3%
8 | CCOP(C)(=S)SCC(=O)NC(C)C(=O)O (stereo not given) | inactive: 2.1%
9 | CCOC(=O)c1ccc(NP(C)(=O)Oc2ccc(OC)cc2)cc1 (stereo not given) | inactive: 1.5%
10 | CP(=O)(Nc1ccccn1)Oc1ccc(Cl)cc1 (stereo not given) | inactive: -3.4%
11 | Cc1cccc(C)c1OP(C)(=O)Nc1ccc(SC(F)(F)F)cc1 (stereo not given) | inactive: 82.2%
12 | CP(=O)(NC(=O)Nc1ccccc1)Oc1ccccc1 (stereo not given) | inactive: -13%
13 | Cc1cc(C)cc(OP(C)(=O)Nc2ccc(SC(F)(F)F)cc2)c1 (stereo not given) | inactive: 4%
14 | CP(=S)(Nn1cnnc1)Oc1ccccc1 (stereo not given) | inactive: -20.1%
15 | CP(=O)(OC12CC3CC(CC(C3)C1)C2)OC12CC3CC(CC(C3)C1)C2 | inactive: -1.9%
16 | CC(C)(C)c1ccc(OP(C)(=O)O)cc1 | inactive: -8.9%
17 | CCN(CC)CC(O)COC(=O)C(O)(c1ccccc1)C1CCCCC1 (stereo not given) | inactive: 3.4%
18 | CP(=O)(Oc1ccccc1)N1CCOC1=O (stereo not given) | inactive: -1.3%
19 | COc1ccccc1OP(C)(=O)Nc1c(C)n(C)n(-c2ccccc2)c1=O (stereo not given) | inactive: -12.8%
20 | CP(=O)(Nc1ccccn1)Oc1ccccc1 (stereo not given) | inactive: -10.8%
21 | CN(C)CCOC(=O)C(O)(c1ccccc1)C1CCCC1 (stereo not given) | inactive: 1%
22 | COc1ccc(OP(C)(=O)Nc2ccccn2)cc1 (stereo not given) | inactive: -12.1%
23 | Cc1nc2ccc3ccccc3c2o1.O=[N+]([O-])c1cc([N+](=O)[O-])c(O)c([N+](=O)[O-])c1 | inactive: 15.2%
24 | COc1ccc(OP(C)(=O)Nc2ccccc2Br)cc1 (stereo not given) | inactive: 2.9%
25 | COc1ccccc1OP(C)(=O)Nc1ccc(C)c(C)c1 (stereo not given) | inactive: 1.5%
26 | CP(=O)(Nc1ccccc1F)Oc1ccccc1 (stereo not given) | inactive: -0.3%
27 | Cc1ccccc1NP(C)(=O)Nc1ccccc1C | inactive: -4.4%
28 | CCOP(C)(=S)SCC(=O)NC(C)(CC)C(=O)O (stereo not given) | inactive: -4.6%
29 | COc1ccc(OP(C)(=O)Nc2cccc(Br)c2)cc1 (stereo not given) | inactive: 6.7%
30 | CN(C)CCOC(=O)C(O)(c1ccccc1)C1CCCCC1 (stereo not given) | inactive: -6.6%
